Results as given in ChEMBL document CHEMBL3390842 (Medchemcomm, 2012).
Calls of active or inactive are those of the source. The rule behind the calls is not given here.

By UniProt entry, the sequences of proteins in these tests, tags left out. Where a name states a change or a piece, a line headed by the entry shows the natural chain unless it says otherwise.
UniProt Q9HC97: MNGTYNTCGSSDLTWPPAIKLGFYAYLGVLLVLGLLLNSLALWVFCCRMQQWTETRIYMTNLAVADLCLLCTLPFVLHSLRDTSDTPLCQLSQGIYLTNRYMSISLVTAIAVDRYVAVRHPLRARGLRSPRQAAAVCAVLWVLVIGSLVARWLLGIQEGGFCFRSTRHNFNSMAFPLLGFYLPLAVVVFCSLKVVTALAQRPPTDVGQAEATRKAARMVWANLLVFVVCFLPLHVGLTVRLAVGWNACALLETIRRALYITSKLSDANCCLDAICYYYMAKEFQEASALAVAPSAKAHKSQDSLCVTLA

Tests used:
[1] = molecular target: T1, G-protein coupled receptor 35 (Homo sapiens, UniProt Q9HC97); assay: Agonist activity at GPR35 in human HT-29 cells assessed as induction of whole cell dynamic mass redistribution at 50 uM after 50 mins by resonant waveguide grating biosensor analysis in presence of GPR35 antagonist ML-145
[2] = molecular target: T1, G-protein coupled receptor 35; assay: Agonist activity at GPR35 in human U2OS cells assessed as induction of beta-arrestin translocation at 64 uM after 5 hrs by beta-lactamase reporter gene assay in presence of GPR35 antagonist ML-145
[3] = molecular target: T1, G-protein coupled receptor 35; assay: Agonist activity at GPR35 in human HT-29 cells assessed as induction of whole cell dynamic mass redistribution at 32 uM after 50 mins by resonant waveguide grating biosensor analysis in presence of GPR35 antagonist ML-145; format: cell-based
[4] = molecular target: T1, G-protein coupled receptor 35; assay: Agonist activity at GPR35 in human HT-29 cells assessed as induction of whole cell dynamic mass redistribution at 100 uM after 50 mins by resonant waveguide grating biosensor analysis in presence of GPR35 antagonist ML-145
[5] = molecular target: T1, G-protein coupled receptor 35; assay: Agonist activity at GPR35 in human U2OS cells assessed as induction of beta-arrestin translocation up to 1 mM after 5 hrs by beta-lactamase reporter gene assay
[6] = molecular target: T1, G-protein coupled receptor 35; assay: Agonist activity at GPR35 in human HT-29 cells assessed as induction of whole cell dynamic mass redistribution at 200 uM after 50 mins by resonant waveguide grating biosensor analysis in presence of GPR35 antagonist ML-145
[7] = molecular target: T1, G-protein coupled receptor 35; assay: Agonist activity at GPR35 in human HT-29 cells assessed as induction of whole cell dynamic mass redistribution at 50 nM after 50 mins by resonant waveguide grating biosensor analysis in presence of GPR35 antagonist ML-145

## O=[N+]([O-])c1ccc(O)cc1[N+](=O)[O-]
[1]
  Activity: Active

## CC(C)(c1cc([N+](=O)[O-])c(O)c([N+](=O)[O-])c1)c1cc([N+](=O)[O-])c(O)c([N+](=O)[O-])c1
[2]
  Activity: inactive

## Cc1cc([N+](=O)[O-])c(O)c([N+](=O)[O-])c1
[2]
  Activity: inactive
[3]
  Activity: inactive

## O=[N+]([O-])c1ccc([N+](=O)[O-])c(O)c1
[4]
  Activity: Active

## O=[N+]([O-])c1cccc(O)c1[N+](=O)[O-]
[5]
  Activity: inactive
[6]
  Activity: Active

## O=[N+]([O-])c1cc(C(=C(Cl)Cl)c2cc([N+](=O)[O-])c(O)c([N+](=O)[O-])c2)cc([N+](=O)[O-])c1O
[7]
  Activity: inactive
